# Measured values taken from paper PMC8467340, “Fine Tuning of Cholinesterase and Glutathione-S-Transferase Activities by Organoruthenium(II) Complexes” (Biomedicines, 2021).
# The chains behind the UniProt entries cited, without tags or fusion partners. Residues count along the entry.
# UniProt O42275, 24-633: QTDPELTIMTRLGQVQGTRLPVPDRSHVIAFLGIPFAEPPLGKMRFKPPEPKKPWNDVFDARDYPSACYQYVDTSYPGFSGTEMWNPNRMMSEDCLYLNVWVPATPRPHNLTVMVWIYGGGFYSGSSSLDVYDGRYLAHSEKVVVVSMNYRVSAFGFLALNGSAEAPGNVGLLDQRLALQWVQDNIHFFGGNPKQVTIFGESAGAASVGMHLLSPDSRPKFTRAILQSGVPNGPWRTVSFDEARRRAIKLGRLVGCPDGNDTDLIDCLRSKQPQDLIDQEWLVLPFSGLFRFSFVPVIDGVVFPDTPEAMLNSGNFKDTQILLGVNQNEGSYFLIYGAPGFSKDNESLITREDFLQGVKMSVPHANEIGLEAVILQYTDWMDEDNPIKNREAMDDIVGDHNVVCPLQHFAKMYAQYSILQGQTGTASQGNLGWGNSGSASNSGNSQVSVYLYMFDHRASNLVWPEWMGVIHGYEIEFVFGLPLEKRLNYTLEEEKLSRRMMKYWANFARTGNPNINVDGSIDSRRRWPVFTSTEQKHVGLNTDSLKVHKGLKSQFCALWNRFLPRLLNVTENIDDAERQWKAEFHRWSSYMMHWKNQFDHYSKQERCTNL
# UniProt P81908, whole entry: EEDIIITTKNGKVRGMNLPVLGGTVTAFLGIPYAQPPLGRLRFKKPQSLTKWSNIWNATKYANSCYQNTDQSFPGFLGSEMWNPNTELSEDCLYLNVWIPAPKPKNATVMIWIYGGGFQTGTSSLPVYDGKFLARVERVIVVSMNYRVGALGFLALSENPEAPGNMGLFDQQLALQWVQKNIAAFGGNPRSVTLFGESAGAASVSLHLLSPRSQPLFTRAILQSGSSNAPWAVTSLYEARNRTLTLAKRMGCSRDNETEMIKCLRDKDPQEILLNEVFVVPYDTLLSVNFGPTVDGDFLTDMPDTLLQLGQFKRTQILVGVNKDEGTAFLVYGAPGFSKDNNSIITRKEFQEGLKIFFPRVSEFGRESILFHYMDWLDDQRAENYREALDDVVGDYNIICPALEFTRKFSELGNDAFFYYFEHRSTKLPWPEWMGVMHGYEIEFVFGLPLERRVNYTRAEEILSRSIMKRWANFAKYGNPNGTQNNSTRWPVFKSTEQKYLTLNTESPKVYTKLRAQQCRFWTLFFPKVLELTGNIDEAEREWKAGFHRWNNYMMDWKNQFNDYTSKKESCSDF
# UniProt P22303, 32-614: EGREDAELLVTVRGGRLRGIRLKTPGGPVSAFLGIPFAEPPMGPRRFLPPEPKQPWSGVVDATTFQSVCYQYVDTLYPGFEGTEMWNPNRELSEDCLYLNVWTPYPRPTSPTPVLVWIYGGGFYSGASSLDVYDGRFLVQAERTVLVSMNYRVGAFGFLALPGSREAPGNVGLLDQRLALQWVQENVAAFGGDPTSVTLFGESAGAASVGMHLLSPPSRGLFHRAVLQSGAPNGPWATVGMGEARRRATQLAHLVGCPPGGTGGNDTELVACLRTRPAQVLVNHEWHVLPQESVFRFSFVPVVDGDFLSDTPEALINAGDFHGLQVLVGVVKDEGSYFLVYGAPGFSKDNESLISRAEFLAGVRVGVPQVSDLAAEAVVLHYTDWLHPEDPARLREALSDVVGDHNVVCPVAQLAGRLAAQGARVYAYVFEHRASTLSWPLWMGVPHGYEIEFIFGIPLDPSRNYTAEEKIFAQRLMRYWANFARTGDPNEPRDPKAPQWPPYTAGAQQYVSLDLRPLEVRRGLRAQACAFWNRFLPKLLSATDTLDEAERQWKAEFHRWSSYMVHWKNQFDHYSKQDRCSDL
# Read-outs that look alike come from different tables or passages of the source.
# Key:
# [1] = target: T1, electric eel AChE (eeAChE) (Electrophorus electricus, UniProt O42275); experiment: Cholinesterase inhibition assay (modified Ellman method), eeAChE; type: biochemical; settings: for IC50: mean ± SEM of three independent measurements, / = No activity, read-out: Enzyme Inhibition eeAChE IC50; for Ki: determined for compounds with IC50 < 33 μM, substrate 0.125, 0.25, 0.5 mM, read-out: Enzyme Inhibition eeAChE Ki
# T1 construct: purchased Sigma-Aldrich
# Method: (§1) The activities of the ChEs were determined using a modification of the Ellman method adapted for microtiter plates, as described in [47]. Stock solutions of complexes 4, 5, 6, 7, 8 and 10, as well as of ligands L2 and L3 (1 mg/mL) were prepared in 100% MeOH, whereas stock solutions of complexes 2 and 3 (1 mg/mL) were prepared in 5% DMSO in deionised water. Positive control (1 mg/mL neostigmine bromide; Sigma-Aldrich, St. Louis, MO, USA) was also prepared in 100% MeOH. The stock solutions of the potential inhibitors and the positive and negative controls were added to the wells, and progressively diluted in 100 mM potassium phosphate buffer (pH 7.4) to the final volume of 50 μL. Then, 100 μL acetylthiocholine chloride (1 mM) and 5,5′-dithiobis-2-nitrobenzoic acid (0.5 mM) in 100 mM potassium phosphate buffer (pH 7.4) were added into the microtiter plate wells. Three ChEs were used as the enzyme sources: electric eel AChE (eeAChE); human recombinant AChE (hrAChE), and horse serum BChE (hsBChE) (all Sigma-Aldrich, St. Louis, MO, USA). These were dissolved in the same buffer to the final concentration of 0.0075 U/mL. Finally, 50 μL of each ChE solution was added into the microtiter plate wells to start the reaction, which was followed spectrophotometrically at 405 nm at 25 °C over 5 min using a kinetic microplate reader (Dynex Technologies Inc., Chantilly, VA, USA). The blank reactions without the inhibitors were run with the appropriate dilutions of the solvents in which the tested compounds were initially diluted (100% MeOH or 5% aqueous DMSO), and the readings were corrected according to the appropriate blanks. Each measurement was repeated at least three times. […] The data were analysed using the OriginPro software (OriginPro 2020, OriginLab Corporation, Northampton, MA, USA).
# [2] = target: T2, horse serum BChE (hsBChE) (Equus caballus, UniProt P81908); experiment: Cholinesterase inhibition assay (modified Ellman method), hsBChE; type: biochemical; settings: for Ki: determined for compounds with IC50 < 33 μM, substrate 0.125, 0.25, 0.5 mM, read-out: Enzyme Inhibition hsBChE Ki; for IC50: mean ± SEM of three independent measurements, / = No activity, read-out: Enzyme Inhibition hsBChE IC50
# T2 construct: horse serum BChE (hsBChE); purchased Sigma-Aldrich; host or cells: horse serum
# Method: as §1
# [3] = target: T3, human recombinant AChE (hrAChE) (Homo sapiens, UniProt P22303); experiment: Cholinesterase inhibition assay (modified Ellman method), hrAChE; type: biochemical; settings: for IC50: mean ± SEM of three independent measurements, / = No activity, read-out: Enzyme Inhibition hrAChE IC50; for Ki: determined for compounds with IC50 < 33 μM, substrate 0.125, 0.25, 0.5 mM, read-out: Enzyme Inhibition hrAChE Ki
# T3 construct: purchased Sigma-Aldrich
# Method: as §1
# [4] = target: T2, horse serum BChE (hsBChE); settings: previously reported, cited from earlier work
# [5] = target: T3, human recombinant AChE (hrAChE); settings: previously reported, cited from earlier work
# [6] = target: T1, electric eel AChE (eeAChE); settings: previously reported, cited from earlier work
Substance,IC50 [1] [µM],Ki [2] [µM],IC50 [2] [µM],IC50 [3] [µM],Ki [1] [µM],Ki [3] [µM],IC50 ([4]; read-out: Enzyme Inhibition hsBChE IC50) [µM],Ki ([4]; read-out: Enzyme Inhibition hsBChE Ki) [µM],IC50 ([5]; read-out: Enzyme Inhibition hrAChE IC50) [µM],Ki ([5]; read-out: Enzyme Inhibition hrAChE Ki) [µM],IC50 ([6]; read-out: Enzyme Inhibition eeAChE IC50) [µM],Ki ([6]; read-out: Enzyme Inhibition eeAChE Ki) [µM]
[RuCym(L1)pta]PF6 [Complex 6],> 100,1.1,0.39 ± 0.79,> 100,,,,,,,,
[RuCym(L1)Br] [Complex 2],13.1 ± 2.5,0.63,3.39 ± 2.3,6.57 ± 4.1,4.87,2.49,,,,,,
[RuCym(L1)Cl] [Complex 1],,,,,,,7.52 ± 1.3,4,25.1 ± 2.5,24,5.01 ± 0.8,35
[RuCym(L1)I] [Complex 3],12.9 ± 2,0.8,3.48 ± 0.9,6.55 ± 4.5,1.43,1.94,,,,,,
"tricarbonyldichlororuthenium(II) dimer [Ru(CO)3Cl2]2 [Precursor 10, reference compound]",> 100,,> 100,> 100,,,,,,,,
